From patent publication US7511119B2, “PRAME peptide analogues” (MannKind Corporation, priority 2005, dated 2009)

System: splenocytes
Assay: Ex vivo IFN-gamma production after re-stimulation with wild-type NY-ESO-1157-165 (ELISA)
Assay type: in vivo, mice
Settings: 10 μM wild-type peptide, 3 and 6 days; FIG. 17
Source text: Supernatants were harvested and the concentration of IFN-γ measured by ELISA.

C165V: NY-ESO-1 157-165 analog with C165V substitution (SLLMWITQV; UniProt P78358 157-165, looked up, variant C165V) [Peptide C165V]
IFN-gamma production upon ex vivo re-stimulation with wild-type peptide: failed to induce increased capability
